A short description of series [1]: dissolution study and supersaturation stability in FASSIF. It is filed as physicochemical. The note with it: fumarate cocrystal of 1 vs free base of 2.

The structures appear in SMILES notation. A value given as a limit tells only on which side of the number the result lay.

Take `Cc1nc(C)c(C(=O)Nc2ccc(F)c(-c3nc4ncc(-c5ncccc5C)cn4n3)c2)o1` [compound 1, N-(4-Fluoro-3-(6-(3-methylpyridin-2-yl)-[1,2,4]triazolo[1,5-a]pyrimidin-2-yl)phenyl)-2,4-dimethyloxazole-5-carboxamide]: the “supersaturation in FASSIF relative to free base of compound 2” value in series [1] was 5 fold. For the same molecule, the EC50/IC50 with r BZD, in the series with hr GABAA ag, with hr GABAA antag, in the series on h Nic(cns) and in the series on h PDE3 was over 30 µM throughout.

These data come from article PMC7549094 (Journal of Medicinal Chemistry, 2020).
